Experimental data published in the SangsterLogP compilation.

A logP of 3.9 was found for `CC(C)c1nc(CN(C)C(=O)N[C@H](C(=O)N[C@@H](Cc2ccccc2)C[C@H](O)[C@H](Cc2ccccc2)NC(=O)OCc2cncs2)C(C)C)cs1` in this work.
